Reference: US20160263250A1
pEC50: −log10 of the molar value.

Columns and labels:
[1] = target: GLP-1R naturally expressed on mouse insulinoma-derived MIN6 cells and mouse pancreatic beta cells (mouse) (UniProt O35659)
[2] = target: GLP-1R naturally expressed on mouse insulinoma-derived MIN6 cells and mouse pancreatic beta cells (mouse) (UniProt O35659); test: cell binding, fluorescence plate reader, MIN6 cells, 1 hour at 37 C
human GLP-1R (human) = human GLP-1R (human) (UniProt P43220); test: cell binding, fluorescence plate reader, HEK/hGLP-1R cells, 1 hour at 37 C

## Exendin-4 (from UniProt P26349 48-86) (peptide)
[1]
  fold lower fluorescence of Exendin-4K12-VT680 after pre-treatment: 5 fold

## Exendin-4K12-VT680 (peptide)
[2]
  pEC50: 9.30

## Exendin-4K12-VT680 (peptide; other documents disagree on this pair)
Human GLP-1R (human)
  pEC50: 9.52
